Chains of the proteins cited; added tags and fusions are not shown. Residues count along the entry.
UniProt Q5S007, 970-2527 G2019S limits assumed: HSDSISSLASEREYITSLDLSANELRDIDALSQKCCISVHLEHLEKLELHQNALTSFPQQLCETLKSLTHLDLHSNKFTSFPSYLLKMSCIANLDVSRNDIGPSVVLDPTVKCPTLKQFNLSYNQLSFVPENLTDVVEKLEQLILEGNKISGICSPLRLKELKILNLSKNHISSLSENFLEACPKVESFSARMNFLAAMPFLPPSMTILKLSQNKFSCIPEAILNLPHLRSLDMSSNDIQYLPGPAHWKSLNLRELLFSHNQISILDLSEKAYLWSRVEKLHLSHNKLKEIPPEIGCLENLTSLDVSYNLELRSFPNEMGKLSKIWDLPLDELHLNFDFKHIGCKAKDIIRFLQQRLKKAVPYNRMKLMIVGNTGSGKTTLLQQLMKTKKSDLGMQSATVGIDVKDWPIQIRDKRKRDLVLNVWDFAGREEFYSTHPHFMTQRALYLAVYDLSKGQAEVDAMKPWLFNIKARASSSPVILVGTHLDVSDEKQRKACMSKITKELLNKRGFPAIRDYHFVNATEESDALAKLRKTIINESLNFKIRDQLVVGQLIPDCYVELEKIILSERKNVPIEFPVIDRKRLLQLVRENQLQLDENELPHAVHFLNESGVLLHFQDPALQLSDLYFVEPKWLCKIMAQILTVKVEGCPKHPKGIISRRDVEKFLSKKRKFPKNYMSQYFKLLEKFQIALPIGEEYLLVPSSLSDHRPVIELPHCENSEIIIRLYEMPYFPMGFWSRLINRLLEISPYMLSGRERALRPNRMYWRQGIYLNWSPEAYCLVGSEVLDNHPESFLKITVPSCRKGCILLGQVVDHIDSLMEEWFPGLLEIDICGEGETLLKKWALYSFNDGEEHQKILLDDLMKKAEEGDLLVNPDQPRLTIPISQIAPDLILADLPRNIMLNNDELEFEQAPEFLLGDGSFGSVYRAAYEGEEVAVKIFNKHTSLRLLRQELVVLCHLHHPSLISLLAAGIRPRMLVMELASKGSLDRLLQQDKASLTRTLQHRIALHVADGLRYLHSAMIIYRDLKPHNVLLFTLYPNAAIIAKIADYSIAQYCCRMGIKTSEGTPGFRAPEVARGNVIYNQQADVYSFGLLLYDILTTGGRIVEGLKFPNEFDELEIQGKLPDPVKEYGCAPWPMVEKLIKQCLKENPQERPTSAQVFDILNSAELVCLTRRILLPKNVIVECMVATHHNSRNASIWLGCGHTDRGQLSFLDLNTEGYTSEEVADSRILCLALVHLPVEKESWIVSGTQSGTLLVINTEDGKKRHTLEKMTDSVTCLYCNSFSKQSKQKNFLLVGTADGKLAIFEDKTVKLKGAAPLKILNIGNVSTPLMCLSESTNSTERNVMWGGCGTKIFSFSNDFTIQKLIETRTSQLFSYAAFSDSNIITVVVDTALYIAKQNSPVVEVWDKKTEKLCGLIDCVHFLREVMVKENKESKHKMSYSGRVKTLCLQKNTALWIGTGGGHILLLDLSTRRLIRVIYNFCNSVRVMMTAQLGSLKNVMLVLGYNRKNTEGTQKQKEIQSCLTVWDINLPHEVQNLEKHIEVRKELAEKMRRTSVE

According to patent publication US9440952B2, “Compounds inhibiting leucine-rich repeat kinase enzyme activity” (Merck Sharp & Dohme Corp., priority 2013, dated 2016):

Molecular target: LRRK2(G2019S mutation, GST-LRRK2(amino acids 970-2527)) (Homo sapiens, UniProt Q5S007, G2019S)
Test: LRRK2 Km ATP LanthaScreen Assay
Type: biochemical
Conditions: read-out: LRRK2 IC50, mean IC50 values

With `CCOc1ccc2[nH]nc(-c3ccnc(N4CC[C@H](OC)C4)c3)c2c1` the IC50 was 18.8 nM.
